Blank lines part the entries; values can stand above or below the binder they belong to.
Tests used:
[1] = biological target: CD28 on Jurkat/IL2-reporter cells (UniProt P10747); assay: cell-based or functional assay
[2] = biological target: T1, human PD-L1 (human); assay: flow cytometry, SCC152 cells transduced with human PD-L1, anti-human Fc detection
T1 construct: whole, on cells
Method: (§1) Binding affinity to CD28 was determined using primary human T cells which endogenously express CD28. Binding to PD-L1 was determined using SCC152 cells transduced with human PD-L1. Binding to CTLA-4 was measured using Chinese hamster ovary (CHO) cells stably transduced to express human CTLA-4.
(§2) For staining and analysis by flow cytometry, 75,000 human T cells, SCC152/PD-L1 cells, or CHO/CTLA-4 cells were plated in 96-well round-bottom plates. Cells were spun down and resuspended in staining buffer (PBS (phosphate buffered saline), 1% BSA (bovine serum albumin), 1 mM EDTA, and 0.1% sodium azide) for 20 minutes to block non-specific binding. Afterwards, cells were centrifuged, stain buffer aspirated, and then resuspended in 50 μL of a 1:5 serial dilution of each CD80-Fc candidate variant starting at 100 nM ending at 0.8 nM. Primary staining was performed on ice for 60 minutes, before washing cells in […] staining buffer three times. PE-conjugated anti-human Fc (Jackson ImmunoResearch, USA) was diluted 1:250 in 50 μL staining buffer and added to cells and incubated another 30 minutes at 4° C. Cells were washed two times in 150 μL stain buffer and then fixed in 2% formaldehyde/PBS for 5 minutes at room temperature. Samples were analyzed CytoFLEX LX flow cytometer (Beckman Coulter, USA). Median Fluorescence Intensity (MFI) was calculated for each cell type using the CytExpert software from Beckman Coulter.
(§3) Binding assays were carried out to assess the specificity and affinity of multivalent proteins to cell-expressed CTLA-4, CD28, and PD-L1 counter structures.

By UniProt entry, the sequences of proteins in these tests, tags left out. Residues count along the entry.
UniProt P16410, 36-223: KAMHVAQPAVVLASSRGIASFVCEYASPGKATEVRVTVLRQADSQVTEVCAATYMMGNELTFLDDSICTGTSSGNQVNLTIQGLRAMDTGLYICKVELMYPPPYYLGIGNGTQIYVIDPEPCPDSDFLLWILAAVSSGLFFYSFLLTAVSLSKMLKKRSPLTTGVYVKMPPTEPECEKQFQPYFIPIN

[3] = biological target: T1, human PD-L1; assay: flow cytometry, SCC152 cells transduced with human PD-L1; MFI against WT CD80 ECD-Fc
Method: as §1
as §2, with “Cells were washed two times in 150 μL stain buffer and then fixed in 2% formaldehyde/PBS for 5 minutes at room temperature.” left out, “Coulter. […]” for “Coulter.”

[4] = biological target: T2, human CD28 on cells (human, UniProt P10747); assay: cell-based or functional assay
[5] = biological target: T3, human CTLA-4 on CHO cells (human, UniProt P16410, in part); assay: flow cytometry, CHO/CTLA-4 cells
T3 construct: whole, on cells; also called CHO/CTLA-4
Method: as §1, §2, §3

[6] = biological target: T2, human CD28 on cells; assay: flow cytometry, primary human T cells
Method: as §1, §2, §3

[7] = biological target: T4, human CTLA-4 (human, UniProt P16410, in part); assay: flow cytometry on CHO/CTLA-4 cells
T4 construct: whole, on cells; also called CHO/CTLA-4 cells
Method: as §1, §2

[8] = biological target: T5, human CD28 (endogenously expressed on primary human T cells) (human, UniProt P10747); assay: flow cytometry, primary human T cells
T5 construct: whole, on cells
Method: as §1, §2

[9] = biological target: T6, human PD-L1 (human); assay: flow cytometry, SCC152/PD-L1 cells
T6 construct: whole, on cells; also called SCC152/PD-L1 cells
Method: as §1, §2

Fold Increase over WT at 50 nM [1]: 0.89 fold | Rel. Luminescence Units (RLU) 2 nM [1]: 2380 RLU | Rel. Luminescence Units (RLU) 10 nM [1]: 2560 RLU | Rel. Luminescence Units (RLU) 50 nM [1]: 2160 RLU | Rel. Luminescence Units (RLU) 250 nM [1]: 2190 RLU | Anti-Human Fc (MFI) at 0.8 nM [2]: 650 MFI | Anti-Human Fc (MFI) at 4 nM [2]: 636 MFI | Anti-Human Fc (MFI) at 20 nM [2]: 652 MFI | Anti-Human Fc (MFI) at 100 nM [2]: 694 MFI | Fold change vs WT CD80 @20 nM [3]: 1 fold
B1: IgG4 Fc Control (other)
chain: ESKYGPPCPPCPAPEFLGGPSVFLFPPKPKDTLMISRTPEVTCVVVDVSQEDPEVQFNWYVDGVEVHNAKTKPREEQFNSTYRVVSVLTVLHQDWLNGKEYKCKVSNKGLPSSIEKTISKAKGQPREPQVYTLPPSQEEMTKNQVSLTCLVKGFYPSDIAVEWESNGQPENNYKTTPPVLDSDGSFFLYSRLTVDKSRWQEGNVFSCSVMHEALHNHYTQKSLSLSLG
notes: Human IgG4 Fc with S228P, no CD80 domain; also called Fc-only negative control; negative control Fc alone

Fold Increase over WT at 50 nM [4]: 0.89 fold | Rel. Luminescence Units (RLU) at 2 nM, K562/OKT3/PD-L1 + Jurkat/IL-2 reporter [4]: 2380 RLU | Rel. Luminescence Units (RLU) at 10 nM, K562/OKT3/PD-L1 + Jurkat/IL-2 reporter [4]: 2560 RLU | Rel. Luminescence Units (RLU) at 50 nM, K562/OKT3/PD-L1 + Jurkat/IL-2 reporter [4]: 2160 RLU | Rel. Luminescence Units (RLU) at 250 nM, K562/OKT3/PD-L1 + Jurkat/IL-2 reporter [4]: 2190 RLU | Anti-Human Fc (MFI) at 0.8 nM [5]: 303 MFI | Anti-Human Fc (MFI) at 4 nM [5]: 312 MFI | Anti-Human Fc (MFI) at 20 nM [5]: 305 MFI | Anti-Human Fc (MFI) at 100 nM [5]: 303 MFI | Fold change vs WT CD80 @20 nM [5]: 0 fold | Anti-Human Fc (MFI) at 0.8 nM [6]: 189 MFI | Anti-Human Fc (MFI) at 4 nM [6]: 167 MFI | Anti-Human Fc (MFI) at 20 nM [6]: 170 MFI | Fold change vs WT CD80 @20 nM [6]: 0.9 fold
B2: IgG4 Fc Control (other)
chain: B1 chain
notes: Negative control, Fc alone; also called Fc-only negative control

MFI at 0.8 nM [7]: 303 MFI | MFI at 4 nM [7]: 312 MFI | MFI at 20 nM [7]: 305 MFI | fold change vs WT CD80 at 20 nM [7]: 0 fold
B3: IgG4 Fc Control (other)
chain: B1 chain
notes: Negative control; also called negative control Fc alone

MFI (anti-human Fc) at 0.8 nM [8]: 189 MFI | MFI (anti-human Fc) at 4 nM [8]: 167 MFI | MFI (anti-human Fc) at 20 nM [8]: 170 MFI | MFI (anti-human Fc) at 100 nM [8]: 172 MFI | fold change of MFI vs WT CD80 at 20 nM [8]: 0.9 fold
B4: IgG4 Fc Control (human IgG4 Fc S228P alone) (other)
chain: B1 chain
notes: negative control, Fc alone; also called Fc-only negative control

Anti-Human Fc (MFI) at 0.8 nM [9]: 650 MFI | Anti-Human Fc (MFI) at 4 nM [9]: 636 MFI | Anti-Human Fc (MFI) at 20 nM [9]: 652 MFI | Anti-Human Fc (MFI) at 100 nM [9]: 694 MFI | Fold change vs WT CD80 @20 nM [9]: 1 fold
B5: IgG4 Fc Control (other)
chain: B1 chain
notes: negative control; also called Fc-only negative control

Source: patent US20250243260A1 (ALPINE IMMUNE SCIENCES, published 2025)
